Source: patent publication US5500428A (dated 1996)

Protein sequences, listed by entry. Tags and fused reporters are not part of them.
UniProt P47745, whole entry: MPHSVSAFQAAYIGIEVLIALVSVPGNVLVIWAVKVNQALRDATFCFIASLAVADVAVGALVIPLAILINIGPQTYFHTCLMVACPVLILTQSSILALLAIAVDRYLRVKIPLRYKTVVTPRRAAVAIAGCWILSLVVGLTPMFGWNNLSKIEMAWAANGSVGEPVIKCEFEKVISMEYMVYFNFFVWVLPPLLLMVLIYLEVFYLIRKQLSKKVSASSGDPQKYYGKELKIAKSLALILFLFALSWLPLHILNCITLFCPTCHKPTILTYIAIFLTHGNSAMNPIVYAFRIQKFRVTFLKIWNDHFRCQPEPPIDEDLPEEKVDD

Target: adenosine receptor known as A1 (Cavia porcellus, UniProt P47745)

`Cn1c(=O)c2[nH]cnc2n(C)c1=O` [1,3-dimethylxanthine] showed a Kb of roughly 10 µM.
